The text below walks through data of ChEMBL document CHEMBL4017444, “Development of N-hydroxycinnamamide-based HDAC inhibitors with improved HDAC inhibitory activity and in vitro antitumor activity” (Bioorg Med Chem, 2017).

Chains of the proteins cited; added tags and fusions are not shown. Lines headed by an entry give the natural chain unless they say otherwise; changes in a name come on top.
UniProt Q13547, whole entry: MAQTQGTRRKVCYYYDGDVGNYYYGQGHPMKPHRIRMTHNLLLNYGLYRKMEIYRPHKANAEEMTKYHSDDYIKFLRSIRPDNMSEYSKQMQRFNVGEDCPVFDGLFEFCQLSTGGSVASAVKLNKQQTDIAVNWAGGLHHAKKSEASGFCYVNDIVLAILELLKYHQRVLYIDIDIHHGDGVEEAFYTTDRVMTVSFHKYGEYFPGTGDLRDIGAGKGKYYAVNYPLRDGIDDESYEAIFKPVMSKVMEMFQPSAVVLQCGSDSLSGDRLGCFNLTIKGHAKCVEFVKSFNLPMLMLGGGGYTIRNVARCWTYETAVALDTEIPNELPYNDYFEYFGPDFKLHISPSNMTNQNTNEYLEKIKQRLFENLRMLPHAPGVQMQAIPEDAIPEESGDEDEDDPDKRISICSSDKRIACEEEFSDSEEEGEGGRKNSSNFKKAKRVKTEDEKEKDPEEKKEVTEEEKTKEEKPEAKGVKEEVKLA
UniProt Q92769, whole entry: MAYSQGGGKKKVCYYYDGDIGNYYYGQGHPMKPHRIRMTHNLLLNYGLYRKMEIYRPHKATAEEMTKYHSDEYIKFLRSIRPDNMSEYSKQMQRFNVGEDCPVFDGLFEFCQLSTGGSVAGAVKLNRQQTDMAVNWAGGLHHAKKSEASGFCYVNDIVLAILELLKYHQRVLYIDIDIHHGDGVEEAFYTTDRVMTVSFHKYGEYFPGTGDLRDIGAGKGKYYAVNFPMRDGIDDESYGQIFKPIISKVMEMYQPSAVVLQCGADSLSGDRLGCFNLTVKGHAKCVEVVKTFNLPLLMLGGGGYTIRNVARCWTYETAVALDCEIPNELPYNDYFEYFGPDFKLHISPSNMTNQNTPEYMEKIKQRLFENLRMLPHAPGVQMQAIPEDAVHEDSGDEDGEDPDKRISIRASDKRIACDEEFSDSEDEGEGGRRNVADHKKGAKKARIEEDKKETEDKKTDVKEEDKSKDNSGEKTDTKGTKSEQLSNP
UniProt O15379: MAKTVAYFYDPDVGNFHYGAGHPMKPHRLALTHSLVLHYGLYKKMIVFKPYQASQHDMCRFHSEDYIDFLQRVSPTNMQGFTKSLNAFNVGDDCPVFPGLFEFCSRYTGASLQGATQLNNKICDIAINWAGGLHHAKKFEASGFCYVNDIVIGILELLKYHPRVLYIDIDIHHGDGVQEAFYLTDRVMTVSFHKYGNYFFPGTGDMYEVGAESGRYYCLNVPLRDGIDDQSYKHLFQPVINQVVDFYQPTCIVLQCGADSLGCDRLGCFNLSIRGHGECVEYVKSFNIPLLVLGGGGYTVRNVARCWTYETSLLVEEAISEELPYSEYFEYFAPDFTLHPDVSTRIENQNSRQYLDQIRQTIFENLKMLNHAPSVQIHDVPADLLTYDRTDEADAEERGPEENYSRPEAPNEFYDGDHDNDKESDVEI

The target in one assay is Histone deacetylase 1 (Homo sapiens, UniProt Q13547). Put plainly: Inhibition of HDAC1 (unknown origin) using Ac-Leu-GlyLys(Ac)-AMC as substrate preincubated for 5 mins followed by substrate addition measured after 30 mins by fluorescence assay.
Another assay concerns the target Histone deacetylase 2 (Homo sapiens, UniProt Q92769). The assay is described as follows: Inhibition of HDAC2 (unknown origin) using Ac-Leu-GlyLys(Ac)-AMC as substrate preincubated for 5 mins followed by substrate addition measured after 30 mins by fluorescence assay.
The target of another assay is Histone deacetylase 3 (Homo sapiens, UniProt O15379). Put plainly: Inhibition of HDAC3 (unknown origin) using Ac-Leu-GlyLys(Ac)-AMC as substrate preincubated for 5 mins followed by substrate addition measured after 30 mins by fluorescence assay.

One may read the IC50 as the concentration that gives 50% inhibition. Read a low IC50 as inhibition by little substance. Turning to `CCCC(CCC)C(=O)N[C@H](COc1ccc(/C=C/C(=O)NO)cc1OC)Cc1c[nH]c2ccccc12`, the IC50 against Histone deacetylase 1 was found to be 180 nM; at Histone deacetylase 2, 322 nM; at Histone deacetylase 3 it was 7.5 nM.
